Tested on: MDCK cells (Madin-Darby Canine Kidney Epithelial Cells)

In the case of NC(=O)c1ncn([C@@H]2O[C@H](CO)[C@@H](O)[C@H]2O)n1 [Ribavirin, reference compound], the D is reported as “++++ (key: absorbance percentage≦25 was recorded as +/−; >25≦50 recorded as +; >50≦75 as ++; >75≦100 as +++; >100 as ++++)”.

— US20080152735A1, “Herbal Extract Having Anti- Influenza Virus Activity and Preparation of Same” (NATIONAL DEFENSE MEDICAL CENTER, priority 2006, published 2008)
